# Source: ChEMBL document CHEMBL1177792, “Pre-clinical characterization of aryloxypyridine amides as histamine H3 receptor antagonists: identification of candidates for clinical development” (Bioorg Med Chem Lett, 2010)
# By UniProt entry, the sequences of proteins in these tests, tags left out. Where a name states a change or a piece, a line headed by the entry shows the natural chain unless it says otherwise.
# UniProt Q9Y5N1: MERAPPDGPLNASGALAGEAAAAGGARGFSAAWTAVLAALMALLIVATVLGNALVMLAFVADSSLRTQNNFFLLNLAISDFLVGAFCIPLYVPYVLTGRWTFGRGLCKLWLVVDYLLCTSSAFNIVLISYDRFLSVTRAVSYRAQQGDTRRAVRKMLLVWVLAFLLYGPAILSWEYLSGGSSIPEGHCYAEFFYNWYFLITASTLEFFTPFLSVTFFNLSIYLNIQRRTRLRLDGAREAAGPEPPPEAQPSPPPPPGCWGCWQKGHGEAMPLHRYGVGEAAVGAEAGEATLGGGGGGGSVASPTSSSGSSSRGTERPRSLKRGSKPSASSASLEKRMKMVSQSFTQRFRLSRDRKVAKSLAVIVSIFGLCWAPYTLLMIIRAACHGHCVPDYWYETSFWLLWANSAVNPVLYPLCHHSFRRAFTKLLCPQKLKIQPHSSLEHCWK
# UniProt Q9QYN8: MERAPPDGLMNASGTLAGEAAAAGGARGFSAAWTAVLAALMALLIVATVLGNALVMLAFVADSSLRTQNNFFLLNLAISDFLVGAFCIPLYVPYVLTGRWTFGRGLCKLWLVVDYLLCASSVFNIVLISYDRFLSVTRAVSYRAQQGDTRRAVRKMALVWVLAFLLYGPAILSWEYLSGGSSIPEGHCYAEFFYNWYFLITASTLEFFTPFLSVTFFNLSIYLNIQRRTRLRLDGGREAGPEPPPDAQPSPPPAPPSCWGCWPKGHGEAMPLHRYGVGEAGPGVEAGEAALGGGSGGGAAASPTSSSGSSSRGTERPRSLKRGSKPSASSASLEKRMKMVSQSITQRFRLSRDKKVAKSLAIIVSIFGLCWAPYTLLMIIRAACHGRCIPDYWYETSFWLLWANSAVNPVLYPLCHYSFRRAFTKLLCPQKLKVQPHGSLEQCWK
# pKi: −log10 of the molar value.
# Legend:
# Histamine H3 receptor [1] = target: T1, Histamine H3 receptor (Homo sapiens, UniProt Q9Y5N1); assay: Antagonist activity at human histamine H3 receptor expressed in human SK-N-MC cells assessed as inhibition of forskolin-induced cAMP accumulation after 6 hrs; assay type: functional, cell-based; conditions: read-out: pA2 (converted)
# Histamine H3 receptor [2] = target: T2, Histamine H3 receptor (Rattus norvegicus, UniProt Q9QYN8); assay: Binding affinity to histamine H3 receptor in rat brain; assay type: tissue-based
# Histamine H3 receptor [3] = target: T1, Histamine H3 receptor; assay: Displacement of [125I]-iodoproxyfan from human recombinant histamine H3 receptor expressed in human SK-N-MC cells after 1 hr by scintillation counting; assay type: cell-based
# Histamine H3 receptor [4] = target: T2, Histamine H3 receptor; assay: Antagonist activity at rat histamine H3 receptor expressed in human SK-N-MC cells assessed as inhibition of forskolin-induced cAMP accumulation after 6 hrs; assay type: functional, cell-based; conditions: read-out: pA2 (converted)
smiles,measurement,setting,value
O=C(c1ccc(Oc2ccc(F)cc2)nc1)N1CCCN(C2CCC2)CC1 [JNJ-39220675],Kb,Histamine H3 receptor [1],0.38 nM
same,pKi,Histamine H3 receptor [2],7.64
same,pKi,Histamine H3 receptor [3],8.85
same,Kb,Histamine H3 receptor [4],3.55 nM
